The numbers were not newly measured in patent US9034928B2, “Methods for metabolic imaging” (IMAGNX, Inc., priority 2011, dated 2015), which cites them from elsewhere.

For the data set the following is noted: statement without a test; cited from earlier work.

Take ^13C succinate [reference compound]: the “transport across biological membranes” value was “poorly transported”.
